Our source for the activation (cAMP increase) values is PubChem BioAssay AID624287 (National Center for Advancing Translational Sciences (NCATS), 2012).

Structures are written as SMILES. The entries are a selection whose mix differs from that of the whole data set. Results filed as inconclusive are left out. Active and inactive are the calls of the source. Calls come from the whole dose curve; as a rule, active = well fitted activation curve with a large enough effect; inconclusive = small, poorly fitted or top-dose-only effect, or another doubt; inactive = no such curve, though single readings can be large or run the other way; cell line not stated here.

The nature of this assay: qHTS for Agonist of gsp, the Etiologic Mutation Responsible for Fibrous Dysplasia/McCune-Albright Syndrome: qHTS.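 Note: phosphodiesterase inhibitor Ro 20-1724 added with compounds to block cAMP breakdown; nearly all actives have a fitted effect of over 60% in size.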 The conditions noted are these: gsp mutant cells, cAMP HTRF, 30 min; at 76.9 µM (top of the series) unless noted. On the technique in general: Quantitative high-throughput screening tests each substance at several concentrations.
For the compound `CC(=O)NC(SC(=S)N(CC(C)C)CC(C)C)C(Cl)(Cl)Cl` (stereo unspecified), the activation (cAMP increase) is inactive: -22.4%.
As for `Cc1ccc(OP(=O)(Nc2ccccn2)Oc2ccc(C)cc2)cc1`, the figure is inactive: 9.1% [at 15.4 µM]; as for `COC(=O)c1cc2c(s1)N=C(c1ccccc1)N(C)P2(=O)N1CCOCC1` (stereo unspecified), inactive: -10.9%; as for `Cc1c([N+](=O)[O-])cc([N+](=O)[O-])c(Br)c1[N+](=O)[O-]`, inactive: -4.37% [at 15.4 µM].
As for `CCC(=O)N1C2C3N(C(=O)CC)C1C1N(C(=O)CC)C(C(N1C(=O)CC)N3C(=O)CC)N2C(=O)CC`, the figure is inactive: 18.4%; as for `CCN(CC)CCCOC(=O)C(O)(c1ccccc1)C1CCCCC1` (stereo unspecified), inactive: 27.8%; as for `O=C(OC1CN2CCC1CC2)c1ccccc1` (stereo unspecified), inactive: 2.27% [at 15.4 µM].
Next, `CP(=O)(Nc1ccccc1)Oc1ccc(F)cc1` (stereo unspecified): inactive: 6.35%; `CN(C)C(=O)Oc1noc2ccccc12`: inactive: 18.5% [at 15.4 µM].
For `O=c1c2cc([N+](=O)[O-])ccc2[nH]c2c([N+](=O)[O-])cc([N+](=O)[O-])cc12`, the activation (cAMP increase) was inactive: -22.3%.
For `CCCCCOc1ccc(NP(C)(=O)Oc2ccc(Cl)cc2Cl)cc1` (stereo unspecified), the activation (cAMP increase) was inactive: 26.1%.
`Cc1ccccc1OP(=O)(Nc1ccccn1)Oc1ccccc1C`: the activation (cAMP increase) was inactive: 0.89% [at 15.4 µM].
For `CC(NC(=O)COC(=O)C(O)(c1ccccc1)c1ccccc1)c1ccccc1` (stereo unspecified), the activation (cAMP increase) is inactive: -99.7%.
Next, `O=C(NC1CCS(=O)(=O)C1)NP(=S)(Oc1ccccc1)Oc1ccccc1` (stereo unspecified): inactive: -17.4% [at 15.4 µM]; `CCNC(=S)/N=C(\N)N[N+](=O)[O-]`: inactive: -0.266%.
As for `Cc1ccc(NP(=O)(Oc2cccc(C)c2)Oc2cccc(C)c2)nc1`, the figure is inactive: -3.88% [at 15.4 µM]; as for `c1ccc(-c2nn[nH]n2)c(-c2nn[nH]n2)c1`, inactive: 0.653% [at 15.4 µM]; as for `CCOC(=O)c1ccc(NP(C)(=O)Oc2ccc(F)cc2)cc1` (stereo unspecified), inactive: 1.65% [at 15.4 µM].
Next, `COc1ccc(OP(C)(=O)Nc2ccc(SC(F)(F)F)cc2)cc1` (stereo unspecified): inactive: -9.69% [at 15.4 µM]; `CC(=O)NC(SC(=S)N(C)C)C(Cl)(Cl)Cl` (stereo unspecified): inactive: 3.8%; `O=[N+]([O-])c1ccc(O)c(/C=N/Nc2ccc([N+](=O)[O-])cc2[N+](=O)[O-])c1`: inactive: 1.24%.
With `Cc1cc(-c2cccc3ccccc23)c(C)cn1.O=[N+]([O-])c1cc([N+](=O)[O-])c(O)c([N+](=O)[O-])c1`, the activation (cAMP increase) was inactive: -14.5% [at 15.4 µM].
Consider `O=[As](O)(c1ccccc1)c1ccc(O)cc1`, for which the activation (cAMP increase) was inactive: -8.07% [at 15.4 µM].
As to `Nc1ccc([As](=O)(O)c2ccc([N+](=O)[O-])cc2)cc1`, the activation (cAMP increase) was inactive: -26.9% [at 15.4 µM].
Next, `C(Cc1nn[nH]n1)Cc1nn[nH]n1`: inactive: 15.1%.
Next, `O=C(OC1CN2CCC1CC2)c1cccc(Cl)c1` (stereo unspecified): inactive: 7.9%.
As for `COc1ccc(N)c([N+](=O)[O-])c1[N+](=O)[O-]`, the figure is inactive: 8.4%; as for `COc1ccc(OP(C)(=O)Nc2cccc(Br)c2)cc1` (stereo unspecified), inactive: 10.4%; as for `CN(C)C1(CNC(=O)c2ccc(Cl)c(S(N)(=O)=O)c2)CCCCC1`, inactive: 10.8% [at 15.4 µM].
As for `O=P(Nc1ccccn1)(c1ccc(Br)cc1)c1ccc(Br)cc1`, the activation (cAMP increase) is inactive: 11.9%.
For `C[C@H]1OP(=O)(Oc2ccccc2)[C@H](O)[C@H](O)[C@H]1N=[N+]=[N-]` (stereo partly specified), the activation (cAMP increase) is inactive: 7.87%.
On to `O=P(Nc1nc2ccccc2s1)(c1ccccc1)c1ccccc1`, for which the activation (cAMP increase) was inactive: 3.35% [at 15.4 µM].
As for `CN(C)CCOC(=O)C(O)(c1ccccc1)C1CCCCC1` (stereo unspecified), the figure is inactive: -0.521%.
Next, `COc1ccc(NP(C)(=O)Oc2ccccc2OC)cc1` (stereo unspecified): inactive: 1.18% [at 15.4 µM]; `CP(=O)(Nc1ccc2c(c1)OCCO2)Oc1ccccc1` (stereo unspecified): inactive: 11.2%; `Cc1ccccc1NP(C)(=O)Nc1ccccc1C`: inactive: -48.4%.
Next, `CP(=O)(Nc1ccc(SC(F)(F)F)cc1)Oc1ccc(F)cc1` (stereo unspecified): inactive: 1.55%; `O=P(Nc1nccs1)(c1ccccc1)c1ccccc1`: inactive: -2.23%.
For `CC(C)C(=O)NC(Sc1ccccc1)C(Cl)(Cl)Cl` (stereo unspecified), the activation (cAMP increase) is inactive: -1.51% [at 15.4 µM].
On to `CCOP(C)(=S)SCC(=O)NC(C)(CC)C(=O)O` (stereo unspecified), for which the activation (cAMP increase) was inactive: -10.2%.
Next, `c1nnnn1CCn1cnnn1`: inactive: -9.87%.
